Measured values as given in paper PMC9319256, “Human Enzyme PADI4 Binds to the Nuclear Carrier Importin α3” (Cells, 2022).

Columns and labels:
[1] = biological target: T1, Impα3 (Homo sapiens, UniProt O00629); assay: Steady-state fluorescence, complex versus addition spectrum, Impα3; format: binding; conditions: 20 µM PADI4 or peptide, 2 µM Impα3; 50 mM sodium phosphate pH 7.0, 25 °C; excitation 280 or 295 nm; triplicates
T1 construct: made in house
T1 sequence (O00629 1-521): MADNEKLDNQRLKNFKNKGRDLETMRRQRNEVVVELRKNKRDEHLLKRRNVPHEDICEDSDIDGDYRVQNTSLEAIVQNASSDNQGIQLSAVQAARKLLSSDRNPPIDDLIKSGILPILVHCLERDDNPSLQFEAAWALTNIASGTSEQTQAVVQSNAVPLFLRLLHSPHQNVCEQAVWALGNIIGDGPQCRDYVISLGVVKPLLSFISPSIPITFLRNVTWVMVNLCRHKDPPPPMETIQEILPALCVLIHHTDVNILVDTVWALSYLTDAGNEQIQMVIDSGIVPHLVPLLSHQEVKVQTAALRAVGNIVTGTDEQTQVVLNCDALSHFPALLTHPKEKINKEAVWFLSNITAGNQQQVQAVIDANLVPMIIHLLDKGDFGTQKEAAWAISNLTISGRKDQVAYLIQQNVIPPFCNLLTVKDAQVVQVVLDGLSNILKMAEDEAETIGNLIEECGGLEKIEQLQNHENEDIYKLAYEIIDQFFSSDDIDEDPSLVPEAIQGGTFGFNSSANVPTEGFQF
Description: Spectra were collected on a Cary Varian spectrofluorometer (Agilent, Santa Clara, CA, USA), interfaced with a Peltier unit. Following the standard protocols used in our laboratories, the samples were prepared the day before and left overnight at 5 °C; before experiments, samples were left for 1 h at 25 °C, where experiments were acquired. A 1 cm pathlength quartz cell (Hellma, Kruibeke, Belgium) was used. The concentration of PADI4 or NLS1/2-PADI4 peptides was 20 µM, and that of each importin species was 2 µM. Samples containing the corresponding isolated peptides, the isolated PADI4, the isolated corresponding importin species, and the corresponding mixtures (at the concentrations indicated above) were prepared. Experiments were performed with samples in 50 mM sodium phosphate buffer, pH 7.0. Fluorescence experiments were repeated in triplicates with newly prepared samples. Variations of results among the experiments were lower than 5%.
Polypeptide samples were excited either at 280 or 295 nm (although NLS2-PADI4 has only a single […]). The other experimental parameters used in the experiments have been described elsewhere. Appropriate blank corrections were made in all spectra.

[2] = biological target: T1, Impα3; assay: Biolayer interferometry (BLI), Impα3; format: binding; conditions: Impα3 immobilized, peptide 1–7 µM, 25 °C; for kon: pseudo-first-order plot
Description: The association (kon) and dissociation (koff) rate constants of the binding of NLS1/2-PADI4 peptides to Impα3 or ΔImpα3 were determined using a BLItz system (ForteBio, Pall, Barcelona, Spain). The buffer used in the experiments was that recommended by the manufacturer. […] The peptide concentrations were in the range from 1 to 7 µM during the association step. The general scheme of the protein association/dissociation reactions in the BLItz system for NLS1/2-PADI4 with Impα3 and ΔImpα3 immobilized on the biosensor was similar to that described previously.
Fittings of the sensorgrams was carried out using KaleidaGraph (Synergy software, Reading, PA, USA). The interferometry response during the association step, R(t) (measured in response units, RU), and the binding rate, dR(t)/dt, can be used to evaluate the kinetics of the formation of the Impα3/ΔImpα3–NLS1/2-PADI4 complex, according to (3) dR/dt=kon[NLS1/2PADI4](Rmax−R(t))−koffR(t), where Rmax is proportional to the total concentration of biosensor-bound importin species, and [NLS1/2PADI4] represents the concentration of the corresponding NLS1/2-PADI4 peptide.
In Equation (3), R(t) is given by (4) R(t)=Req−Reqe^(−kobs (t−t0)), where Req is the steady-state (or equilibrium) response obtained at infinite time, when dR(t)/dt = 0, and t0 = 180 s is the time at which the association step between biosensor-immobilized Impα3/ΔImpα3 and NLS1/2-PADI4 in the solution started. We fitted the experimentally obtained R(t) under any condition as (5) R(t)=Req−Reqe^(−kobs (t−t0))−Req′e^(−kobs2′ (t−t0)), since an F statistical analysis test of the kinetic constants obtained with a fitting to Equations (4) or (5) was always better in the latter, two-exponential case (at 95% confidence level). With Equation (5), we are assuming that the equilibrium response at infinite time (that is, Req) is reached with the fastest exponential.
The kinetic rate from the second exponential (with a total amplitude smaller than 5%, in all cases, and slower than the other phase) in Equation (5) remained constant at all the peptide concentrations explored.
The dissociation process was always fitted to a single exponential, with R(t) given by (7) R(t)=R1 e^(−koff(t−t0)), where t0 = 300 is the time at which the dissociation of the peptide from the biosensor-bound Impα3/ΔImpα3 started in our experimental setup, and R1 is the response level when dissociation starts.

[3] = Far-UV CD of isolated peptide, deconvolution (DICHROWEB); format: physicochemical
Excerpt: Far-UV CD spectra were collected on a Jasco J810 spectropolarimeter (Jasco, Tokyo, Japan) interfaced with a Peltier unit. The instrument was periodically calibrated with (+)-10-camphorsulfonic acid. A cell of path length 0.1 cm was used (Hellma, Kruibeke, Belgium). All spectra were corrected by subtracting the corresponding baseline. Concentration of each polypeptide (importin species and either NLS1/2-PADI4 or PADI4) and the buffers were the same used in the fluorescence experiments (Section 2.4).
Isothermal wavelength spectra of each isolated macromolecule and that of the complex were acquired as an average of six scans, at a scan speed of 50 nm/min, with a response time of 2 s and a bandwidth of 1 nm. Handling and preparation of samples were the same described in Section 2.4.1.

[4] = k2D, 50 mM sodium phosphate pH 7.5, 25 °C

With CSCC[C@H](NC(=O)[C@@H](NC(=O)[C@H](CC(C)C)NC(=O)[C@@H](NC(=O)[C@@H](NC(=O)[C@H](CCC(=O)O)NC(=O)[C@@H](NC(=O)CNC(=O)[C@@H]1CCCN1C(=O)[C@H](CC(=O)O)NC(=O)[C@H](CC(C)C)NC(=O)[C@@H]1CCCN1C(=O)[C@H](Cc1c[nH]c2ccccc12)NC(=O)[C@@H](NC(=O)[C@H](CO)NC(=O)[C@H](CO)NC(=O)CNC(=O)[C@@H](NC(=O)[C@H](CO)NC(=O)[C@H](CCCCN)NC(=O)[C@H](CCCCN)NC(=O)[C@H](CCCCN)NC(=O)[C@H](C)NC(C)=O)[C@@H](C)O)[C@@H](C)O)C(C)C)C(C)C)[C@@H](C)O)[C@@H](C)O)C(=O)N[C@@H](CCCCN)C(=O)N[C@H](C(=O)N[C@@H](C)C(=O)N[C@@H](CO)C(N)=O)C(C)C [NLS1-PADI4] the “change in fluorescence spectrum of complex versus addition spectrum” value [1] was “large ones”, the koff [2] was 0.0685 ± 0.0007 s⁻¹ and the kon [2] was 3700 ± 200 M⁻¹ s⁻¹. It also gave a random coil fraction [3, 4] of 54%, a α-helix fraction [3, 4] of 9% and a β-sheet fraction [3, 4] of 37%.
In the case of CC[C@H](C)[C@H](NC(=O)[C@H](CCCCN)NC(=O)[C@H](CCC(N)=O)NC(=O)[C@H](CCC(N)=O)NC(=O)[C@H](CCCCN)NC(=O)[C@H](CCCCN)NC(=O)[C@H](CCCCN)NC(=O)[C@H](CCCCN)NC(=O)[C@@H](NC(=O)CNC(=O)[C@H](CCC(=O)O)NC(=O)[C@H](Cc1ccccc1)NC(=O)[C@H](CC(C)C)NC(=O)[C@H](CC(C)C)NC(=O)[C@H](C)NC(=O)[C@H](CCC(=O)O)NC(=O)CNC(=O)[C@H](Cc1c[nH]cn1)NC(=O)CNC(=O)[C@H](CCC(=O)O)NC(=O)[C@H](CC(N)=O)NC(=O)[C@H](CCC(N)=O)NC(=O)[C@H](CCC(N)=O)NC(=O)[C@H](CCC(=O)O)NC(=O)[C@H](CCC(N)=O)NC(=O)[C@H](Cc1ccccc1)NC(=O)[C@H](CC(C)C)NC(=O)[C@H](CCCCN)NC(=O)[C@H](Cc1ccc(O)cc1)NC(C)=O)[C@@H](C)CC)C(N)=O [NLS2-PADI4], the “change in fluorescence spectrum of complex versus addition spectrum” value [1] is reported as “no large changes in the spectra”, the koff [2] is reported as 0.32 ± 0.01 s⁻¹ and the kon [2] is reported as 3000 ± 2000 M⁻¹ s⁻¹. The random coil fraction ([3]; Contin or Selcon3, pH 7.5, 25 °C) was 64%, the random coil fraction [3, 4] was 55% and the α-helix fraction [3, 4] was 5%. It also gave a β-sheet fraction [3, 4] of 40%.
